# Columns and labels:
# [1] = tested on: cortical neuron cultures from E16 rat embryos; conditions: 72 h
# Procedure: In this evaluation cortical neuron cultures are prepared from E16 rat embryos. […] Neurite outgrowth is determined after a 72 h period by staining cells with a tubulin antibody (TUJ-1) and measuring neurite length with the Cellomics ArrayScan, using the Enhanced Neurite Outgrowth (ENO) algorithm. The data are expressed as total neurite length.
# [2] = tested on: neuron cultures from E16 rat embryos; conditions: 72 h, neurofilament ELISA
# Procedure: In this evaluation neuron cultures are prepared from E16 rat embryos. […] After a 72 h period, neuronal survival is determined by a neurofilament ELISA.
# The data are expressed as total neurofilament content.
structure (smiles),measurement,setting,value
"CN(C)CCn1cc(S(=O)(=O)c2cccc(F)c2)c2cccnc21 [Test Compound B, N-(2-{3-[(3-fluorophenyl)sulfonyl]-1H-pyrrolo[2,3-b]pyridin-1-yl}ethyl)-N,N-dimethylamine]",lowest concentration providing significant enhancement of total neurite length,[1],10 nM
same,lowest concentration providing significant enhancement of survival,[2],10 nM
